Among the data in patent publication US20110136737A1 are Cyclase values, retold here.

The target in the experiment is T1, GIP receptor (GIP RBA, RIN), P43219.
T1 chain: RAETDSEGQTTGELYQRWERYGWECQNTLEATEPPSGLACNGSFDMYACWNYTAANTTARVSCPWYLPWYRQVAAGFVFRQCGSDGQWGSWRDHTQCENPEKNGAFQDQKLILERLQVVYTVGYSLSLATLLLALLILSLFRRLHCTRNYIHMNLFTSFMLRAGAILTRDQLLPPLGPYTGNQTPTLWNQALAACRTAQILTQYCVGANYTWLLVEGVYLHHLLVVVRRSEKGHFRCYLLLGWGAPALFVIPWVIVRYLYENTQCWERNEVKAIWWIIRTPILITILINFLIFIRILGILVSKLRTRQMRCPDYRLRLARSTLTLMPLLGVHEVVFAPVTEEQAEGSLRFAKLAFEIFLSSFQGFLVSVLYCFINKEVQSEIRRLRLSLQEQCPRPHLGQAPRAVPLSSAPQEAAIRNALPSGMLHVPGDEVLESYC
Description: cell-based or functional assay.

Turning to GYAEGTFISDYSIALDKIRQQEFVNWLLAQHPSSGAPPPS (modifications not checked) [0601GIP4292], the Cyclase turned out to be 3.46.
